B1: bMERB domain (Rab binding domain) of Mical-cL, residues 534-683 (domain or fragment, human, UniProt O94851 1796-1945, looked up)
chain: KQEELKRLYKAQAIQRQLEEVEERQRASEIQGVRLEKALRGEADSGTQDEAQLLQEWFKLVLEKNKLMRYESELLIMAQELELEDHQSRLEQKLREKMLKEESQKDEKDLNEEQEVFTELMQVIEQRDKLVDSLEEQRIREKAEDQHFES
notes: Mical C-terminal like protein (Mical-cL), human, bMERB domain, residues 534-683; Limits are stated for the crystallised construct; also called Mical-cL_(534-683); RBD of Mical-cL
B2: bMERB domain (Rab binding domain) of Mical-1, residues 918-1067 (domain or fragment, human, UniProt Q8TDZ2 918-1067, looked up)
chain: KEEEMKRFCKAQTIQRRLNEIEAALRELEAEGVKLELALRRQSSSPEQQKKLWVGQLLQLVDKKNSLVAEEAELMITVQELNLEEKQWQLDQELRGYMNREENLKTAADRQAEDQVLRKLVDLVNQRDALIRFQEERRLSELALGTGAQG
notes: Mical-1, human, bMERB domain, residues 918-1067 (isoform 1); Limits are stated for the crystallised construct; also called Mical-1_(918-1067); RBD of Mical-1
B3: bMERB domain (Rab binding domain) of EHBP1 (domain or fragment)
chain: not shown
notes: EHBP1 1047-1231 (bMERB domain with CaaX box) is named for the prenylation and localisation experiments only; also called RBD of EHBP1
B4: bMERB domain (Rab binding domain) of EHBP1L1 (domain or fragment)
chain: not shown
notes: EHBP1L1, human, bMERB domain; EHBP1L1 1340-1523 (bMERB domain with CaaX box) is named for the prenylation and localisation experiments only; also called RBD of EHBP1L1
B5: bMERB domain (Rab binding domain) of Mical-3, residues 1841-1990 (domain or fragment, human, UniProt Q7RTP6 1841-1990, looked up)
chain: KQEELKRLHRAQIIQRQLQQVEERQRRLEERGVAVEKALRGEAGMGKKDDPKLMQEWFKLVQEKNAMVRYESELMIFARELELEDRQSRLQQELRERMAVEDHLKTEEELSEEKQILNEMLEVVEQRDSLVALLEEQRLREREEDKDLEA
notes: Mical-3, human, whole predicted bMERB domain, residues 1841-1990 (isoform 1); printed elsewhere as 1841-1992; Limits are stated for the crystallised selenomethionine construct; also called Mical-3_(1841-1990); RBD of Mical-3

Our source for the Kd values is article PMC5026484, “bMERB domains are bivalent Rab8 family effectors evolved by gene duplication” (eLife, 2016).

In general, Kd refers to the free concentration of one partner at which half of the binding sites on the other are occupied at equilibrium, for simple one-to-one binding.

This test deals with T1, Rab1b, full length, loaded with GppNHp (human, UniProt Q9H0U4 1-201).
T1 construct: Rab1b, human; called Rab1 in the results and Rab1bFl in the crystallisation methods; also called Rab1bFl; source: expressed and purified as described previously (Schoebel et al., 2009), loaded with GppNHp, gel filtration
Put plainly: ITC; iTC200, 25°C; 400 µM Rab titrated into 20–40 µM bMERB domain in the cell; 20 mM Hepes pH 7.5, 50 mM NaCl, 2 mM MgCl2, 1 mM TCEP. The following applies: both partners purified.
Take B1: the Kd turned out to be 5.2 µM.
In the case of B2, the equilibrium dissociation constant (Kd) was found to be 2.2 µM.
The figure for B3 is greater than 10 µM; for B4 it is greater than 10 µM; for B5 it is 2.6 µM.
